Experiments:
[1] = system: maize pollen; test: Relative ROS level in maize pollen (ROS detection kit, fluorometry); format: cell-based; settings: ratio to 40% sucrose control, final concentration as listed per compound in Table 5, 6-7 measurements
Description: The red channel or bright channel of the photo was analyzed, and the ROS level was represented by the light intensity of the wavelength with the largest proportion. The relative ROS level in a reproductive tissue refers to a ratio of the ROS level of the reproductive tissue to the ROS level in the control group (40% sucrose).
Taking maize pollen as an example, the experiment of a series of compounds that may affect the ROS level in the maize pollen was tested.
All reagents are dissolved in 40% sucrose. The relative ROS levels were from 6-7 measurements.

[2] = system: maize; test: Haploid induction rate of maize after pollination with reagent-treated pollen; settings: maize pollen treated with saturated MMI

Cn1cc[nH]c1=S [Compound 12, Methimazole]
Relative ROS Level Bright ([1]; bright channel): 1.12 ± 0.12 | Relative ROS Level Red ([1]; red channel): 1.15 ± 0.14 | toxicity to maize [2]: maize sterility

Source: patent publication US12501868B2, “Haploid induction compounds and methods for use thereof” (WIMI BIOTECHNOLOGY (HAINAN) CO., LTD., priority 2020, dated 2025)
